Laboratory results reported in patent US9029367B2, “BACE inhibitors” (Eli Lilly and Company, priority 2013, dated 2015).

Amino acid sequences for entries named in this document (tags omitted). Residues count along the entry.
UniProt P56817, 22-460: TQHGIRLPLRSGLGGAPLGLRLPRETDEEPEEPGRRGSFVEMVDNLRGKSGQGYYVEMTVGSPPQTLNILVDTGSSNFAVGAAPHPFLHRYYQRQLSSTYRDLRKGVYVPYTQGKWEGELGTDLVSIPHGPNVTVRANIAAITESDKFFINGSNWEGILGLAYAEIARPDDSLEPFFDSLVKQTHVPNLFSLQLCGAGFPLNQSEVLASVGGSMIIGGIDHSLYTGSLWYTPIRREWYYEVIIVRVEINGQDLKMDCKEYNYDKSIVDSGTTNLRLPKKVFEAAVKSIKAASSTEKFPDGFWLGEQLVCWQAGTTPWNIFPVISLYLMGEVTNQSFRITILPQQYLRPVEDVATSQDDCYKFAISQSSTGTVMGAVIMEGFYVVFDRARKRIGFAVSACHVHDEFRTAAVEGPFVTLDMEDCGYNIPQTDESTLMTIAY

Molecular target: human BACE1 (1-460):Fc (Homo sapiens (Human), UniProt P56817)
Experiment: BACE1 FRET Assay
Format: biochemical
Details: purified recombinant huBACE1:Fc, FRET substrate, pH 4.6; Mean ± SEM
Procedure: For in vitro enzymatic and cellular assays, test compounds are prepared in DMSO to make up a 10 mM stock solution. The stock solution is serially diluted in DMSO to obtain a ten-point dilution curve with final compound concentrations ranging from 10 μM to 0.05 nM in a 96-well round-bottom plate before conducting the in vitro enzymatic and whole cell assays.
Human BACE1 (accession number: AF190725) is cloned from total brain cDNA by RT-PCR. The nucleotide sequences corresponding to amino acid sequences #1 to 460 are inserted into the cDNA encoding human IgG1 (Fc) polypeptide (Vassar et al., Science, 286, 735-742 (1999)). This fusion protein of BACE1 (1-460) and human Fc, named huBACE1:Fc, is constructed into the pJB02 vector. Human BACE1 (1-460):Fc (huBACE1:Fc) is transiently expressed in HEK293 cells. 250 μg cDNA of each construct is mixed with Fugene 6 and added to 1 liter HEK293 cells. Four days after the transfection, conditioned media are harvested for purification. huBACE1:Fc is purified by Protein A chromatography. The enzyme is stored at −80° C. in small aliquots. […]
Serial dilutions of test compounds are prepared as described above. […] The RFU of the mixture at time 0 is recorded at excitation wavelength 355 nm and emission wavelength 460 nm, after brief mixing on a plate shaker. […] The RFU at the end of incubation is recorded with the same excitation and emission settings used at time 0. […]

pIC50: 7.88
SMILES: COc1cnc(C(=O)Nc2ccc(F)c([C@]34COC[C@@]3(F)CSC(N)=N4)c2)cn1.Cl [Example 2, N-[3-[(4aR,7aS)-2-Amino-4a-fluoro-5,7-dihydro-4H-furo[3,4-d][1,3]thiazin-7a-yl]-4-fluoro-phenyl]-5-methoxy-pyrazine-2-carboxamide hydrochloride]

pIC50: −log10 of the molar value.
